Assay results: US11633459B2, “GIP derivatives and uses thereof” (priority 2018, dated 2023)

Columns and labels:
Assay type in all cases: physicochemical
[1] = Chemical stability: HMWP formation by SEC-MS; details: 250 μM, pH 7.4, 37° C., 4 weeks
Description: The aim of this study is to determine the chemical stability of GIP derivative compositions. As a measure of stability of the GIP derivative composition, the formation of high molecular weight peptide formation (% HMWP) as a function of time was analysed by size-exclusion chromatography (SEC-MS). Further, the purity loss of the GIP derivative compositions was measured by LCMS. Samples for chemical stability assays were freshly prepared before each assay. […] The pH of the sample was adjusted to the desired value using appropriate amounts of concentrated NaOH and HCl. […] Formation of covalent oligomers (HMWPs) was analysed and identified by a SEC-MS method. […] The LC system was coupled to both a TUV detector operated at 215 nm, 10 Hz and a high resolution QToF mass spectrometer from Waters (Synapt G2S) operated in positive ion mode and m/z range of 100 to 4000 with normal resolution setting. Lock mass correction against Leu-Enkephalin was done every 31 sec. Spectra were processed in MassLynx version 4.1 and MaxEnt deconvoluted.

[2] = Chemical stability: purity loss by LCMS; details: 250 μM, pH 7.4, 37° C., 4 weeks
Description: The aim of this study is to determine the chemical stability of GIP derivative compositions. As a measure of stability of the GIP derivative composition, the formation of high molecular weight peptide formation (% HMWP) as a function of time was analysed by size-exclusion chromatography (SEC-MS). Further, the purity loss of the GIP derivative compositions was measured by LCMS. Samples for chemical stability assays were freshly prepared before each assay. […] The pH of the sample was adjusted to the desired value using appropriate amounts of concentrated NaOH and HCl. […] The column oven was kept at 55° C. […] The solvents were pumped from a binary solvent manager system and mixed on the high pressure side in a mixer with a volume of 50 μl. The gradient and flow can be seen in table 4: A Flow-through-needle auto sampler at 8° C. was used to inject 1 μl of each sample. The effluent passed through a tuneable UV detector (TUV) tuned to 215 nm. The outlet from the UV detector passed to the electrospray source of the mass spectrometer. The capillary was held at 3 kV and dry nitrogen gas was purged at a flow of 750 l/h and a temperature of 250° C. The source block was kept at 120° C. and the large bore cone was flushed with nitrogen at 50 l/h with standard electrode potentials on the rest of the instrument. The MS was operated in high resolution mode with a nominal resolution of 35000. The ToF analyser was operated in ADC mode with an m/z window from 100-2000.

[3] = ThT fibrillation assay (physical stability); details: 250 μM, pH 7.4, 37° C., 45 hours of incubation
Description: The Thioflavin T assay was performed as outlined in Schlein (2017), AAPS J, 19(2), 397-408.
Low physical stability of a peptide may lead to amyloid fibril formation, which is observed as well-ordered, thread-like macromolecular structures in the sample, which eventually may lead to gel formation. This has traditionally been measured by visual inspection of the sample. However, that kind of measurement is very cumbersome and depending on the observer. Therefore, the application of a small molecule indicator probe is much more advantageous. Thioflavin T (ThT) is such a probe and has a distinct fluorescence signature when binding to fibrils [Naiki et al. (1989) Anal. Biochem. 177, 244-249; LeVine (1999) Methods. […]
Here, F is the ThT fluorescence at the time t. The constant t0 is the time needed to reach 50% of maximum fluorescence. The two important parameters describing fibril formation are the lag-time calculated by t0−2τ and the apparent rate constant kapp 1/τ. […]
Incubation, shaking and measurement of the ThT fluorescence emission were done in a Fluoroskan Ascent FL fluorescence platereader (Thermo Labsystems). […] Fluorescence measurement was done using excitation through a 444 nm filter and measurement of emission through a 485 nm filter. […]
Each run was initiated by incubating the plate at the assay temperature for 10 min. The plate was measured every 20 minutes for a desired period of time. […]

[4] = Dynamic Light Scattering Stability Index (DLS-SI); details: 250 μM, pH 7.4, 4 weeks at 25° C.

| Substance | HMWP formation (%/month) [1] | Purity loss (%/month) [2] | ThT Assay Lag time [3] | DLS-SI Dimensionless [4] | DLS-SI precipitates [4] |
| --- | --- | --- | --- | --- | --- |
| N{1}-acetyl,N{Epsilon-24}-[(4S)-4-carboxy-4-[[(4S)-4-carboxy-4-[[(4S)-4-carboxy-4-[[4-[(19-carboxynonadecanoylamino)methyl]cyclohexanecarbonyl]amino]butanoyl]-amino]butanoyl]amino]butanoyl]-[D-Tyr1,Nle14,Arg18,Aib20,Lys24]-hGIP(1-31) [Compound 25] | 0.40 %/month | 2.00 %/month | – | – | – |
| N{1}-acetyl,N{Epsilon-24}-[(4S)-4-carboxy-4-[[(4S)-4-carboxy-4-[[(4S)-4-carboxy-4-[[4-[(19-carboxynonadecanoylamino)methyl]cyclohexanecarbonyl]amino]butanoyl]-amino]butanoyl]amino]butanoyl]-[D-Tyr1,Nle14,Arg18,Glu20, Lys24]-hGIP(1-31) [Compound 23] | 0.40 %/month | 1.60 %/month | >45 h | 1.7 | No |
| N{1}-acetyl,N{Epsilon-24}-[(4S)-4-carboxy-4-[[(4S)-4-carboxy-4-[[(4S)-4-carboxy-4-[[(4S)-4-carboxy-4-[[4-[(19-carboxynonadecanoylamino)methyl]cyclohexanecarbonyl]amino]butanoyl]amino]butanoyl]amino]butanoyl]amino]butanoyl]-[D-Tyr1,Nle14,Arg18,Lys24]-hGIP(1-31) [Compound 30] | 0.10 %/month | 1.14 %/month | >45 h | 1.1 | No |
